Test system: Lewis Lung carcinoma cells
Experiment: Combination therapy in Lewis Lung carcinoma model (tumor volume)
Assay type: in vivo, C57BL/6 mice
Description: Lewis Lung carcinoma cells (2.5 x 10^6 cells) prepared from a brei carried in C57BL/6 mice were injected sub-cutaneously into the hind legs of mice.

SMILES: NS(=O)(=O)c1ccc(-n2nc(C(F)F)cc2-c2ccc(Cl)cc2)cc1 [COX-2 inhibitor, 4-[5-(4-chlorophenyl)-3-(difluoromethyl)-1H-pyrazol-1-yl]benzenesulfonamide]
- Tumor Volume (Day 22) % Inhibition (COX-2 inhibitor 6 mg/kg by gavage twice a week): 0%
- Tumor Volume (Day 22) % Inhibition (COX-2 inhibitor 20 mg/kg by gavage twice a week): 54%

Source: patent publication EP1479385B1, “Use of cyclooxygenase-2 inhibitors in the treatment and prevention of neoplasia” (G.D. Searle LLC, priority 1996, dated 1998)
